Assay results as given in US20190022088A1 (RedHill Biopharma Ltd., priority 2017, published 2019).

Molecular target: T1, Human Matriptase-1 (Homo sapiens, UniProt Q9Y5Y6)
T1 sequence (Q9Y5Y6 615-854 limits assumed): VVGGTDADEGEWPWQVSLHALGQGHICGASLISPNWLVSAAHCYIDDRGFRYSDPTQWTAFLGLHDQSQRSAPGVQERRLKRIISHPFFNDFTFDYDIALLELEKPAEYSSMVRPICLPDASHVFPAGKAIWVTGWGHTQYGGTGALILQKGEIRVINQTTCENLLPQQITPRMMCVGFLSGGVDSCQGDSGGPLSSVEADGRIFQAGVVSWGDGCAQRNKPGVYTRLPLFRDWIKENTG
Experiment: Ki of WX-UK1, chromogenic substrate cleavage
Format: biochemical
Conditions: 37° C., 0.5% BSA, pH=7.4, read-out: Ki (μM) Mean ± SD (n)

CCOC(=O)N1CCN(C(=O)C(Cc2cccc(C(=N)N)c2)NS(=O)(=O)c2c(C(C)C)cc(C(C)C)cc2C(C)C)CC1 (stereo not drawn) [WX-UK1, N-α-(2,4,6-triisopropylphenylsulfonyl)-3-amidino-(L)-phenylalanine 4-ethoxycarbonylpiperazide]
Ki: ~0.2 µM
